# According to US20080033005A1, “METHODS FOR THE TREATMENT OF MULTIPLE SCLEROSIS” (AVENTIS PHARMACEUTICALS INC., priority 2004, published 2008):
# Tests used:
# [1] = test system: Primary rat oligodendrocyte progenitor cells; experiment: Oligodendrocyte toxicity assay, progenitor cells (OLP), SIN-1, LDH release; format: cell-based; conditions: compound 10 nm, 1 hour pretreatment; Sin-1 10 mM; LDH after 24 hours; oligodendrocyte progenitors
# Description: (§1) Primary rat oligodendrocyte progenitor cells were obtained from the cerebra of 2-3 day old postnatal rats (Sprague Dawley). The meninges were removed and tissue was mechanically dissociated. Cells were plated on T75 flasks and fed with DMEM+10% FBS.
# (§2) Enriched OLPs were collected by mechanical separation from the astrocytic monolayer and were expanded in serum free media (SFM) supplemented with the mitogens, PDGF-AA (10 ng/ml) and FGF-2 (10 ng/ml).
# (§3) Cells were plated in 96-well plates, 10,000 per well. Medium was changed to fresh medium and cells were pretreated with compounds for 1 hour. Toxins were added to give the following final concentrations: • Sin-1 10 mM • Pyrogallol 500 μM • C2 ceramide 100 μM • Camptothecin 10 μM
# (§4) Results were calculated as percent protection against toxin-induced toxicity.
# [2] = test system: mature oligodendrocytes; experiment: Oligodendrocyte toxicity assay, mature oligodendrocytes (OL), SIN-1, LDH release; format: cell-based, rat; conditions: compound 10 nm, 1 hour pretreatment, Sin-1 10 mM, LDH after 24 hours
# Description: as §1, §2
# To generate mature oligodendrocytes, progenitor cells were switched to SFM supplemented with IGF-1 (10 ng/ml) 24 hours after plating and cells were grown under these conditions for 7 days prior to experimental assays.
# as §3, §4
compound,measurement,setting,value
"O=C(c1ccc(OCCN2CCCCC2)cc1)c1c2n(c3cc(O)ccc13)CCc1cc(O)ccc1-2 [5,6-dihydro-3,9-dihydroxyindolo[2,1-a]isoquinolin-12-yl)[4-[2-(1-piperidinyl)ethoxy]phenyl]-methanone]",% Protection (SIN-1*) OLP 10 nm,[1],6.049%
same,% Protection (SIN-1*) OL 10 nm,[2],>30%
